GIV Gai3 FP: inhibitors of GIV peptide binding to Galpha-i3, primary screen, biochemical, fluorescence polarization, FITC-GIV GBA peptide, rat Galphai3 | 90 min; hits give low values; scaled: aluminum fluoride 0%, vehicle 100% | percent of control (FP), % (concentration not given with the values) | 210,000 compounds, 0.42% hits | AID 1224905, 2016;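 active = replicate mean at 85% of control or lower, very high polarization wells dropped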;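 also: wells of about 15 µL received 100 nL stock; the first replicate is given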
HCMV UL50-53 inh: cytomegalovirus nuclear egress complex inhibition | 190,000 tested, 0.15% active | AID 1918969 | inhibition, % (test concentration not listed) | HTRF UL50-UL53 interaction, normalized percent inhibition; in the data active means inhibition above about 27%, passing the limit was not always enough
GIV-Gai FP conf: GIV-Galpha-i3 inhibition, FP confirmation; 580 tested, 38% active; FITC-GIV peptide binding to Galphai3, fluorescence polarization; stronger effect = lower value; fluorescence polarization, mP at 100 µM; shares compounds with GIV Gai3 FP;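 active means inhibition score of 15 or more, meaning 100 minus mean polarization as percent of control over three replicates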
GIV-Gai AS conf: confirmation of inhibitors of GIV binding to human Galpha-i3; AID 1259351; AlphaScreen Galphai3-GIV binding, purified proteins, 90 min; stronger effect = lower value; shares compounds with GIV Gai3 FP; 580 tested, 39% active; AlphaScreen counts at 100 µM;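 active means inhibition score at or above a set limit, where the score is 100 minus the three-replicate mean percent of control signal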
Numbers without * were called inactive; nt = no result given. The list is not random: actives were taken first. Their share in the collection is about 0.46%.

SMILES	GIV Gai3 FP	HCMV UL50-53 inh	GIV-Gai FP conf	GIV-Gai AS conf
COc1ccc2c(c1)N(C)/C(=c1/s/c(=C3/C(=O)N(c4ccccc4)N=C3C)n(C)c1=O)S2	73*	-34	75	34539
COc1ccc2c(c1)N(C)/C(=c1/s/c(=C3/C(=O)N(C)C(=S)N3C)n(Cc3ccccc3)c1=O)S2	111	nt	nt	nt
O=C(CSc1nnc(-c2ccc3c(c2)OCO3)o1)N1CCc2ccccc21	nt	4	nt	nt
CC(C)n1c(=O)[nH]c2cc(-c3noc(CN4C(=O)COc5ccccc54)n3)ccc21	103	-12	nt	nt
O=C(O)c1cc(NS(=O)(=O)c2cc(F)ccc2F)ccc1N1CCN(c2ccc(F)cc2)CC1	105	-31	nt	nt
O=C(O)c1cc(NS(=O)(=O)c2cc(F)ccc2F)cnc1N1CCOCC1	57*	-10	33*	29995
COc1ccc(NC(=O)Nc2ncc(-c3ccccc3)n2C)c(OC)c1	104	-12	nt	nt
CN1CCN(c2nc(C#N)c(C#N)nc2C(C#N)=C2Nc3ccccc3N2)CC1	100	-24	nt	nt
CCN1/C(=C(\C#N)c2nc(C#N)c(C#N)nc2N2CCOCC2)Nc2ccccc21	67*	-7	75	32831
Cn1c(=O)c2c(-c3ccccc3Br)n(CC(N)=O)cc2n(C)c1=O	108	5	nt	nt
Cc1cc(C(=O)NN2CC(O)=C(c3nc4ccccc4n3C)C2=N)c(C)o1	nt	-4	nt	nt
O=C1c2ccccc2S(=O)(=O)c2cc(-c3nn[nH]n3)ccc21	97	-209	nt	nt
O=C1C(Cc2ccc(-c3nn[nH]n3)cc2)=C(c2ccccc2)S(=O)(=O)c2ccccc21	86	-21	62	36755*
CCN1C=CC2=C(C#N)C(N)C(C#N)(C#N)C(c3cccs3)C2C1 (stereo not drawn)	65*	-51	64	28433
CCOC(=O)N1CC=C2C(C#N)=C(N)C(C#N)(C#N)C(c3cccs3)C2C1 (stereo not drawn)	107	nt	nt	nt
COc1cc(C#N)ccc1OCC(=O)Nc1ccc(C)cc1C	108	-32	nt	nt
Nc1c2c(nn1-c1ccccc1)CC(=O)NC2=O	60*	71*	47*	31739*
O=C1CN(c2ccccc2)C(=O)N1	100	nt	nt	nt
Cc1ccc2c(c1)c1c3n2C=CNC3CCC1 (stereo not drawn)	82*	-75	52*	25813*
Cc1ccc2c(c1)c1c3n2CCCNC3CCC1 (stereo not drawn)	102	-11	nt	nt
Cc1c(C(=O)NCCCN2CCOCC2)sc2ncnc(N3CCN(c4ccccc4F)CC3)c12	112	nt	nt	nt
O=C(Nc1sc2c(c1C(=O)NCC1CCCO1)CCCC2)c1cc(=O)c2ccccc2o1 (stereo not drawn)	101	-16	nt	nt
COC(=O)c1c(NC(=O)c2cc(=O)c3ccccc3o2)sc2c1CCCC2	125	-21	59	43666
Cc1cn(S(=O)(=O)c2ccc3c(c2)CCCC3)cn1	100	-5	nt	nt
O=C1NC(=O)C2C1Sc1[nH]c(=O)sc1C2c1ccco1 (stereo not drawn)	78*	-86	65	3023*
COc1ccc(C2c3sc(=O)[nH]c3SC3C(=O)N(c4ccccc4)C(=O)C32)cc1 (stereo not drawn)	112	-25	nt	nt
O=C1OC(c2ccc(Cl)c([N+](=O)[O-])c2)=N/C1=C\c1cc(Br)cs1	110	nt	nt	nt
CC(=O)Nc1ccc(C2=N/C(=C/c3cc(Br)cs3)C(=O)O2)cc1	93	-13	68	42375
O=c1[nH]c2nonc2nc1/C=C(\O)c1ccccc1	101	-80	nt	nt
NC(=O)NC(=O)c1nc2nonc2[nH]c1=O	44*	3	42*	23047
CCOc1ccc(N2C(=O)CN(C(C)CC)[C@H]3CS(=O)(=O)C[C@H]32)cc1 (stereo partly drawn)	105	6	nt	nt
NC(=O)c1c(NC(=O)CN2C(=O)/C(=C/c3ccc(Cl)cc3Cl)SC2=S)sc2c1CCCC2	101	-16	nt	nt
Cc1ccc2c(c1)Oc1cc(Cl)c(S(=O)(=O)N3CCSCC3)cc1C(=O)N2	106	nt	nt	nt
CCN(CC)c1ncc(C(=O)O)cc1NS(=O)(=O)c1cc(C)cc(C)c1	80*	-32	53	26287*
Cc1ccc(C)c(S(=O)(=O)Nc2cc(C(=O)O)cnc2N(C)C)c1	86	-35	60	26202*
CCCCN(CC)c1ncc(C(=O)O)cc1NS(=O)(=O)c1cc(C)c(C)cc1C	101	-15	nt	nt
CCN(Cc1ccccc1)c1ncc(C(=O)O)cc1NS(=O)(=O)c1cc(C)cc(C)c1	138	-29	nt	nt
Cc1cccc2c(C(=O)NC(C)(C)C)cc(-c3ccccc3)nc12	nt	-1	nt	nt
CCC(C)C(=O)N1CCN(c2cccc(Cl)c2)CC1 (stereo not drawn)	nt	0	nt	nt
O=C(Nc1ccc(N2CCOCC2)c2nonc12)c1cccs1	110	4	nt	nt
COc1ccc(NC(=S)Nc2ccc(N3CCOCC3)c3nonc23)cc1OC	72*	-63	56*	23631*
O=C(CNc1ncnc2ccccc12)NCCO	100	-10	nt	nt
Nc1ccc2c(c1)CCC2=O	144	-21	nt	nt
O=C1CC(=O)c2ccc3c4c(ccc1c24)C(=O)CC3=O	74*	-46	53*	2272*
C=CCNc1ncnc2c1c(-c1ccccc1)cn2-c1ccc(Cl)cc1	106	nt	nt	nt

Compound profiles, from the list above:
CCN(Cc1ccccc1)c1ncc(C(=O)O)cc1NS(=O)(=O)c1cc(C)cc(C)c1 is entered as GIV Gai3 FP: 138; HCMV UL50-53 inh: -29; GIV-Gai FP conf: nt; GIV-Gai AS conf: nt
CCN1C=CC2=C(C#N)C(N)C(C#N)(C#N)C(c3cccs3)C2C1 (stereo not drawn) is entered as GIV Gai3 FP: 65*; HCMV UL50-53 inh: -51; GIV-Gai FP conf: 64; GIV-Gai AS conf: 28433

The results go on.
SMILES	GIV Gai3 FP	HCMV UL50-53 inh	GIV-Gai FP conf	GIV-Gai AS conf
CCOC(=O)c1ccc(Nc2nc3ccccc3n3cnnc23)cc1	103	0	nt	nt
Cc1ccc(C(=O)O)cc1Nc1nc2ccccc2n2cnnc12	76*	-3	43*	18787*
O=C(c1ccc(Cn2c(=O)c(=O)[nH]c3cccnc32)cc1)N1CCN(c2ccccn2)CC1	102	-18	nt	nt
Cc1ccc(/C=C2/C(=O)NC(=O)N(C3CCCCC3)C2=O)cc1	101	-1	nt	nt
Cc1cc(N2Cc3ccccc3C2)ccc1/C=C1/C(=O)NC(=O)N(C2CCCCC2)C1=O	87	nt	71	48945
Cc1csc(-c2c(C)oc3cc(O)ccc3c2=O)n1	nt	1	nt	nt
CCC(C)N1CC(C(=O)NCc2ccc3c(c2)OCO3)CC1=O (stereo not drawn)	102	4	nt	nt
O=C1CSC(N=Nc2c(O)[nH]c3ccccc23)=N1	110	-84	nt	nt
O=C1N=c2ccccc2=C1N=Nc1c(O)[nH]c2ccccc12	57*	-42	51*	9884*
O=C(COC(=O)c1cc(-c2ccco2)nc2ccccc12)c1ccccc1	nt	-32	nt	nt
COc1ccc(NC(=O)Cn2ncn3nc4c(c3c2=O)CCCC4)cc1	103	nt	nt	nt
Cn1c(=O)c2[nH]c(-c3ccccc3)nc2n(C)c1=O	99	-21	nt	nt
CN(C)c1ccc(-c2nc3c([nH]2)c(=O)n(C)c(=O)n3C)cc1	75*	nt	85	28569
O=C1c2ccccc2-c2n[nH]c(=S)nc21	97	-170	nt	nt
O=C1c2ccccc2-c2nc3nonc3nc21	49*	36	44*	17911*

Brought forward from above: three entries, then new ones.
SMILES	GIV Gai3 FP	HCMV UL50-53 inh	GIV-Gai FP conf	GIV-Gai AS conf
CN(C)c1ccc(-c2nc3c([nH]2)c(=O)n(C)c(=O)n3C)cc1	75*	nt	85	28569
O=C1c2ccccc2-c2n[nH]c(=S)nc21	97	-170	nt	nt
O=C1c2ccccc2-c2nc3nonc3nc21	49*	36	44*	17911*
CCCOc1ccc(C2C(C(=O)OC)=CN(Cc3ccc(OC)c(OC)c3)C=C2C(=O)OC)cc1	105	nt	nt	nt
Cc1ccc(S(=O)(=O)c2nc3ccccc3nc2NCCc2ccccc2)cc1	78*	-24	65	42344
COc1ccccc1CNc1nc2ccccc2nc1S(=O)(=O)c1ccc(C)cc1	114	-22	nt	nt
Cc1ccc2c(c1)C=C(C(=O)NC1CCCC1)C=CO2	103	-30	nt	nt
